From article PMC4068829 (Journal of medicinal chemistry, 2013)

Experiments:
MATE1 [1] = molecular target: T1, MATE1 (Homo sapiens, UniProt Q96FL8); assay: High throughput screen
T1 sequence (Q96FL8 1-570): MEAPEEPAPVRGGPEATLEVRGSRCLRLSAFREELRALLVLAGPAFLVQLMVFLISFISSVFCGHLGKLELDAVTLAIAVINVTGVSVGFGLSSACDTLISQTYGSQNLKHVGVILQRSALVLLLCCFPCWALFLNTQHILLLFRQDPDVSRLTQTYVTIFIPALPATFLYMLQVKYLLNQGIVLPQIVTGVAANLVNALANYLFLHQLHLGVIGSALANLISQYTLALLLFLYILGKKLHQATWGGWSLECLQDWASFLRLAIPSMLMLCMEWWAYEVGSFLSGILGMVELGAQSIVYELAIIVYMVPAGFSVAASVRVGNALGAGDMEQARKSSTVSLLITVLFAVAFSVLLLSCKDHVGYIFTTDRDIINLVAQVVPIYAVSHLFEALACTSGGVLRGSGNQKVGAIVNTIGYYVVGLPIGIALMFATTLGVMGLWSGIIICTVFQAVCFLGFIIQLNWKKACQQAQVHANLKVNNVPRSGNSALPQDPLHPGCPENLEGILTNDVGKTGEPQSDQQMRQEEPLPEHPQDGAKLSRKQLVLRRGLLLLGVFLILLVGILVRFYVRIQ

MATE1 [2] = molecular target: T1, MATE1

IC50 (MATE1 [1]) [µM]	IC50 (MATE1 [2]) [µM]	Structure (SMILES)
3		Oc1c(Cl)cc(Cl)cc1Sc1cc(Cl)cc(Cl)c1O [Bithionol]
19	4.3	COc1cc(C(=O)NS(=O)(=O)c2ccccc2C)ccc1Cc1cn(C)c2ccc(NC(=O)OC3CCCC3)cc12 [Zafirlukast]

Where two headings read alike, the source gives them in different places.
